Test: Thermo stability test of esters and/or salts of hexahydro-β-acid (2% premix, 100° C., HPLC)
Assay type: physicochemical
Details: premix with corncob powder, initial content 2.0%, oven 100° C.
Experimental: Samples (the premixes) were placed in crucibles, and then placed in oven at 100° C. for different durations. Then 1.0 g of each of the samples (three duplicate samples from each sample) and 50 ml of ethanol were added into a conical flask, followed by the addition of 100 μL of concentrated hydrochloric acid. The mixture was then subjected to sonication for 5 minutes, and then filtrated. The filtrate was transferred into a 50 ml volumetric flask, topped up to the final volume with ethanol, and then filtered with a 0.45 μm microporous membrane and subjected to HPLC analysis.

Content when being heated at 100° C. for 20 h (20 h): 1.74% | Content when being heated at 100° C. for 44 h (44 h): 0.69%
Substance: butyrate ester of hexahydro-β-acid

Reference: patent US20160368853A1, “MONOESTERS, INNER COMPLEX SALTS OR MONOESTER SALTS OF HEXAHYDRO-BETA-ACID AND APPLICATION THEREOF AS ANIMAL FEED ADDITIVES” (GUANGZHOU INSIGHTER BIOTECHNOLOGY CO., LTD., priority 2014, published 2016)
